Source: patent publication US20040197294A1, “Cosmetic and/or pharmaceutical preparations” (priority 2001, published 2004)
Like-named read-outs stand apart in the source and are kept apart here.

What was measured:
pig's epidermis [1] = assay: Dermatological compatibility: transepidermal water loss (TEWL), gravimetric; settings: 1.5% by weight partial glyceride or glycerol ether in 17% by weight Plantapon PS 10, pH 5.5; skin treated 30 minutes at 40° C.; lower = better compatibility
pig's epidermis [2] = settings: pH 5.5

| TEWL [%-rel] = [treated/untreated * 100] − 100% (pig's epidermis [1]) [%-rel] | TEWL [%-rel] = [treated/untreated * 100] − 100% (pig's epidermis [2]) [%-rel] | Substance |
| --- | --- | --- |
| 6.5 | – | Glycerol monocaprylate (>90) [Example 4] |
| – | 21.5 | Stearic acid mono/diglyceride (65:35) [Example 5] |
| 15.0 | – | Stearic acid monoglyceride (>90) [Example 6] |
